# Assays:
# [1] = test system: oral squamous carcinoma stem cells (OSCSCs); test: 51Cr release cytotoxicity of NK cells cultured with autologous or allogeneic monocytes; assay type: cell-based, human
# Procedure: (§1) Increased cytotoxicity of NK cells cultured with autologous or allogeneic monocytes by ALS patient (FIG. 11). NK with different donor monocytes. Purified NK cells were treated with the combination of IL-2 and anti-CD16 mAb (3 μg/ml), and cultured with autologous and allogeneic monocytes at (1:1 NK:monocyte ratios). After an overnight incubation, the NK cell mediated cytotoxicity was determined by the standard 4-hour chromium release assay using oral squamous carcinoma stem cells (OSCSCs) as targets. The lytic units 30/10^6 cells were determined using inverse number of NK cells required to lyse 30% of the target cells×100.
# as §1, with “Purified” for “Increased cytotoxicity of NK cells cultured with autologous or allogeneic monocytes by ALS patient (FIG. 11). NK with different donor monocytes. Purified”, “autologous” for “autologous and allogeneic”
# PBMCs = test: PBMC Luminex, cytokine/chemokine/growth factor/ligands secretion; assay type: cell-based, human; details: for GRO / IL-6 / IL-7 / IL-8 / IL-10 / IL-12p40 / IL-12p70 / IL-13 / IL-15 / IP-10 / MCP1 / MCP1a / MCP3 / MDC / MIP1b / PDGF-AB/BB / PDGFaa / Rantes / TNFa / TNFb / VEGF: overnight treatment, supernatant
# Procedure: Human ELISA kits for IFN-γ and IL-6 were purchased from Biolegend (San Diego, CA). The assay was conducted as recommended by the manufacturer. For certain experiments multiplex arrays were used to determine the levels of secreted cytokines and chemokines. Analysis was performed using MAGPIX (Millipore, MA) and data was analyzed using xPONENT 4.2.
# Increased cytokine/chemokine/growth factor/ligands in PBMCs of patient activated with anti-CD3/28 and no difference between those activated with IL-2+anti-CD16 or IL-2+sAJ2 when compared to healthy twin (Tables 51-54). PBMC Luminex. PBMCs were left untreated, treated with IL-2 (1000 U/mL) or treated with the combination of IL-2 and anti-CD16 mAb (3 μg/ml), IL-2+anti-CD3/28 antibodies (25 μl/mL) or IL-2+sAJ2 (Cells:sAJ2 1:20). After an overnight treatment at 37° C., the supernatants were harvested and the levels of cytokine/chemokine/growth factor/ligands secretion were measured using multiplex luminex assay (Millipore, MA) (Tables 51-54).
# [2] = H85 TC (healthy twin) PBMC supernatant
substance,measurement,setting,value
Recombinant human IL-2,NK cytotoxicity,[1]; H84 JC NK + allo monocyte,195.55 lytic units 30/10^6 cells
same,NK cytotoxicity,[1]; H84 JC NK + auto monocyte,169.51 lytic units 30/10^6 cells
same,NK cytotoxicity,[1]; H85 TC NK + allo monocyte,127.14 lytic units 30/10^6 cells
same,NK cytotoxicity,[1]; H85 TC NK + auto monocyte,168.11 lytic units 30/10^6 cells
same,NK cell mediated cytotoxicity,"[1]; Table 9, H51 NK + H51 monocyte, row 2.5",57.9
same,NK cell mediated cytotoxicity,"[1]; Table 9, H51 NK + H51 monocyte, row 5",87.0
same,NK cell mediated cytotoxicity,"[1]; Table 12, H53 NK + H51 JC monocyte, row 2.5",48.1
same,NK cell mediated cytotoxicity,"[1]; Table 12, H53 NK + H51 JC monocyte, row 5",68.1
same,NK cell mediated cytotoxicity,"[1]; Table 13, H53 NK + H52 TC monocyte, row 2.5",44.2
same,NK cell mediated cytotoxicity,"[1]; Table 13, H53 NK + H52 TC monocyte, row 5",62.7
same,EGF,PBMCs; H84 JC (ALS) PBMC supernatant,32.7 pg/mL
same,Eotaxin,PBMCs; H84 JC (ALS) PBMC supernatant,6.73 pg/mL
same,FGF2,PBMCs; H84 JC (ALS) PBMC supernatant,9.4 pg/mL
same,FIT3L,PBMCs; H84 JC (ALS) PBMC supernatant,7.25 pg/mL
same,Fractalkine,PBMCs; H84 JC (ALS) PBMC supernatant,136.75 pg/mL
same,GCSF,PBMCs; H84 JC (ALS) PBMC supernatant,72.23 pg/mL
same,GMCSF,PBMCs; H84 JC (ALS) PBMC supernatant,19.31 pg/mL
same,IFNa2,PBMCs; H84 JC (ALS) PBMC supernatant,61.65 pg/mL
same,IFNg,PBMCs; H84 JC (ALS) PBMC supernatant,737.57 pg/mL
same,IL-1Ra,PBMCs; H84 JC (ALS) PBMC supernatant,223.2 pg/mL
same,IL-1b,PBMCs; H84 JC (ALS) PBMC supernatant,78.01 pg/mL
same,IL-3,PBMCs; H84 JC (ALS) PBMC supernatant,1.46 pg/mL
same,IL-4,PBMCs; H84 JC (ALS) PBMC supernatant,52.33 pg/mL
same,IL-5,PBMCs; H84 JC (ALS) PBMC supernatant,4.1 pg/mL
same,IL-9,PBMCs; H84 JC (ALS) PBMC supernatant,11.69 pg/mL
same,IL-17a,PBMCs; H84 JC (ALS) PBMC supernatant,3.7 pg/mL
same,L-2,PBMCs; H84 JC (ALS) PBMC supernatant,5861 pg/mL
same,Scd40L,PBMCs; H84 JC (ALS) PBMC supernatant,90.93 pg/mL
same,TGFa,PBMCs; H84 JC (ALS) PBMC supernatant,2.06 pg/mL
same,GRO,PBMCs; H84 JC PBMC,787.28 pg/mL
same,IL-6,PBMCs; H84 JC PBMC,187.38 pg/mL
same,IL-7,PBMCs; H84 JC PBMC,13.08 pg/mL
same,IL-8,PBMCs; H84 JC PBMC,1731 pg/mL
same,IL-10,PBMCs; H84 JC PBMC,35.16 pg/mL
same,IL-12p40,PBMCs; H84 JC PBMC,11.69 pg/mL
same,IL-12p70,PBMCs; H84 JC PBMC,5.22 pg/mL
same,IL-13,PBMCs; H84 JC PBMC,27.85 pg/mL
same,IL-15,PBMCs; H84 JC PBMC,3.58 pg/mL
same,IP-10,PBMCs; H84 JC PBMC,5325 pg/mL
same,MCP1,PBMCs; H84 JC PBMC,3791 pg/mL
same,MCP1a,PBMCs; H84 JC PBMC,797.51 pg/mL
same,MCP3,PBMCs; H84 JC PBMC,19.59 pg/mL
same,MDC,PBMCs; H84 JC PBMC,236.67 pg/mL
same,MIP1b,PBMCs; H84 JC PBMC,1226 pg/mL
same,PDGF-AB/BB,PBMCs; H84 JC PBMC,628.12 pg/mL
same,PDGFaa,PBMCs; H84 JC PBMC,216.77 pg/mL
same,Rantes,PBMCs; H84 JC PBMC,2776 pg/mL
same,TNFa,PBMCs; H84 JC PBMC,86.34 pg/mL
same,TNFb,PBMCs; H84 JC PBMC,8.68 pg/mL
same,VEGF,PBMCs; H84 JC PBMC,169.34 pg/mL
same,EGF,PBMCs; [2],21.7 pg/mL
same,Eotaxin,PBMCs; [2],6.65 pg/mL
same,FGF2,PBMCs; [2],8.91 pg/mL
same,FIT3L,PBMCs; [2],7.82 pg/mL
same,Fractalkine,PBMCs; [2],144.7 pg/mL
same,GCSF,PBMCs; [2],78.01 pg/mL
same,GMCSF,PBMCs; [2],29.52 pg/mL
same,IFNa2,PBMCs; [2],55.3 pg/mL
same,IFNg,PBMCs; [2],356.57 pg/mL
same,IL-1Ra,PBMCs; [2],290.61 pg/mL
same,IL-1b,PBMCs; [2],31.3 pg/mL
same,IL-3,PBMCs; [2],1.55 pg/mL
same,IL-4,PBMCs; [2],58.41 pg/mL
same,IL-5,PBMCs; [2],2.73 pg/mL
same,IL-9,PBMCs; [2],11.37 pg/mL
same,IL-17a,PBMCs; [2],3.82 pg/mL
same,L-2,PBMCs; [2],6058 pg/mL
same,Scd40L,PBMCs; [2],60.01 pg/mL
same,TGFa,PBMCs; [2],2.34 pg/mL
same,GRO,PBMCs; H85 TC PBMC,578.51 pg/mL
same,IL-6,PBMCs; H85 TC PBMC,233.23 pg/mL
same,IL-7,PBMCs; H85 TC PBMC,15.53 pg/mL
same,IL-8,PBMCs; H85 TC PBMC,1200 pg/mL
same,IL-10,PBMCs; H85 TC PBMC,30.4 pg/mL
same,IL-12p40,PBMCs; H85 TC PBMC,10.47 pg/mL
same,IL-12p70,PBMCs; H85 TC PBMC,5.98 pg/mL
same,IL-13,PBMCs; H85 TC PBMC,23.35 pg/mL
same,IL-15,PBMCs; H85 TC PBMC,5.58 pg/mL
same,IP-10,PBMCs; H85 TC PBMC,5713 pg/mL
same,MCP1,PBMCs; H85 TC PBMC,3688 pg/mL
same,MCP1a,PBMCs; H85 TC PBMC,882.8 pg/mL
same,MCP3,PBMCs; H85 TC PBMC,18.48 pg/mL
same,MDC,PBMCs; H85 TC PBMC,213.63 pg/mL
same,MIP1b,PBMCs; H85 TC PBMC,1574 pg/mL
same,PDGF-AB/BB,PBMCs; H85 TC PBMC,611.21 pg/mL
same,PDGFaa,PBMCs; H85 TC PBMC,153.17 pg/mL
same,Rantes,PBMCs; H85 TC PBMC,1987 pg/mL
same,TNFa,PBMCs; H85 TC PBMC,233.23 pg/mL
same,TNFb,PBMCs; H85 TC PBMC,12.72 pg/mL
same,VEGF,PBMCs; H85 TC PBMC,144.7 pg/mL

# — US20240245770A1, “COMPOSITIONS AND METHODS FOR TREATING NEUROMUSCULAR DISORDERS” (The Regents of the University of California, priority 2019, published 2024)
